Reference: patent US9586956B2, “Isoquinoline and naphthyridine derivatives” (Genentech, Inc., priority 2012, dated 2017)

Sequences of proteins named here, by UniProt entry; tags and fusion partners are left off. Residues count along the entry.
UniProt O95819, 25-289 limits assumed: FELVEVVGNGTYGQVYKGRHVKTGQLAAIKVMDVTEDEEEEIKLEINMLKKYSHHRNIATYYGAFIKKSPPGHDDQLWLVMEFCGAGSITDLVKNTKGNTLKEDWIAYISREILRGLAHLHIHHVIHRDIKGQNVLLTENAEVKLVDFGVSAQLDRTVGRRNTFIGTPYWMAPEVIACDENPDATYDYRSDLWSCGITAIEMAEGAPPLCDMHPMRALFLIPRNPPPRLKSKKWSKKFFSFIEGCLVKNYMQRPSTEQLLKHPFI

How the values were obtained:
[1] = target: T1, purified human MAP4K4 kinase domain (Homo sapiens, UniProt O95819); assay: MAP4K4 Inhibition Assay Protocol No. 1 (Caliper LabChip, moesin-derived peptide phosphorylation); details: read-out: MAP4K4 IC50 (μM) Assay 1, 1 nM enzyme, 10 uM ATP, 45 min
[2] = target: T1, purified human MAP4K4 kinase domain; assay: MAP4K4 Inhibition Assay Protocol No. 2 (Z'-LYTE FRET); details: read-out: MAP4K4 IC50 (μM) Assay 2, 1 nM enzyme, 10 uM ATP, 60 min

IC50 [1]: 0.00256 µM
IC50 [2]: 0.00305 µM
SMILES: Nc1ncc(C(=O)N[C@H]2C[C@@H](O)C2)c2ccc(-c3cccc(F)c3)nc12 (relative stereo)
